Results on eleven compounds are retold here after PubChem BioAssay AID1461 (National Center for Advancing Translational Sciences (NCATS), 2008).

Sequences of proteins named here, by UniProt entry; tags and fusion partners are left off.
UniProt Q6W5P4, whole entry: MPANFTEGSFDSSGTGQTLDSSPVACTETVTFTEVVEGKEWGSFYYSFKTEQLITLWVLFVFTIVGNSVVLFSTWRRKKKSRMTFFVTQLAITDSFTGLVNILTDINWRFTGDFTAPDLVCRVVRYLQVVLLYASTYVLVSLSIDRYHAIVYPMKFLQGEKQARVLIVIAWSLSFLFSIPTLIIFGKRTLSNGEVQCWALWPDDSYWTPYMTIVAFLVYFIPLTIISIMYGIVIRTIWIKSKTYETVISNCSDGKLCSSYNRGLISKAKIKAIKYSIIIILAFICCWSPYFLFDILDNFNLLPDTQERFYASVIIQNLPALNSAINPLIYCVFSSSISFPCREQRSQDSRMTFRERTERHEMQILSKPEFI

The list shows a part of the results, in another mix than the full data. Some tests of the compounds listed are not included; inactive here does not mean inactive elsewhere. Inconclusive results are not listed. Calls of active or inactive are those of the source. Calls come from the whole dose curve; as a rule, active = well fitted inhibition curve with a large enough effect; inconclusive = small, poorly fitted or top-dose-only effect, or effect the other way; inactive = no such curve, though single readings can be large or run the other way.
% is set by controls: 0 for no effect and ±100 for the full control effect.

The assay concerns the target Neuropeptide S receptor (Homo sapiens) (UniProt Q6W5P4). In words: qHTS Assay for Antagonists of the Neuropeptide S Receptor: cAMP Signal Transduction. Note: nearly all actives have a fitted effect of over 50% in size. To be noted: CHO-NPSR cells, cAMP TR-FRET, antagonist mode; at 38.3 µM (top of the series) unless noted. On the technique in general: Quantitative high-throughput screening tests each substance at several concentrations.
For `Cc1ccccc1C(=O)NCC1(N2CCCCC2)CCCCC1`, the activity change, negative = inhibition is inactive: -4.87%. For `CN(C)C1CCCC1OC(=O)C(O)(c1ccccc1)c1ccccc1` (stereo unspecified), the activity change, negative = inhibition is inactive: 8.22%.

With `CCN1CCCC(OC(=O)C2(O)c3ccccc3C=Cc3ccccc32)C1` (stereo unspecified), the activity change, negative = inhibition is inactive: 9.87%.

On to `C=CCN1CCN(CCOC(=O)C(O)(c2ccccc2)c2ccccc2)CC1`, for which the activity change, negative = inhibition was inactive: 0.525%.

In the case of `O=C(NCC1(N2CCCCC2)CCCCC1)c1cc([N+](=O)[O-])ccc1Cl`, the activity change, negative = inhibition is inactive: 2.55%. As for `CCN(CC)CC(C)C(C)OC(=O)C(O)(c1ccccc1)c1ccccc1` (stereo unspecified), the figure is inactive: 6.99%; as for `CC(C)N1C(=O)CC2(CCN(CCOC(=O)C(O)(c3ccccc3)c3ccccc3)CC2)C1=O`, inactive: -2.6% [at 46.1 µM]. Regarding `O=C(OC1CN2CCC1CC2)C(CO)(c1ccccc1)c1ccccc1` (stereo unspecified), the activity change, negative = inhibition was inactive: -6.54% [at 46.1 µM].

For the compound `CN(C)c1cccc(C(=O)NCC2(N(C)C)CCCCC2)c1`, the activity change, negative = inhibition was inactive: -16.1% [at 46.1 µM].

As for `COc1ccc(Br)c(C(=O)NCC2(N3CCCCC3)CCCCC2)c1`, the activity change, negative = inhibition is inactive: -2.78% [at 7.67 µM]. In the case of `COc1cccc(C(=O)NCC2(N3CCCCC3)CCCCC2)c1` it was inactive: -3.37%.
